These results are taken from patent US7632829B2, “Diazepan derivatives” (Hoffmann-La Roche Inc., priority 2006, dated 2009).

Chains of the proteins cited; added tags and fusions are not shown. Residues count along the entry.
UniProt P41597, 1-360 isoform 2: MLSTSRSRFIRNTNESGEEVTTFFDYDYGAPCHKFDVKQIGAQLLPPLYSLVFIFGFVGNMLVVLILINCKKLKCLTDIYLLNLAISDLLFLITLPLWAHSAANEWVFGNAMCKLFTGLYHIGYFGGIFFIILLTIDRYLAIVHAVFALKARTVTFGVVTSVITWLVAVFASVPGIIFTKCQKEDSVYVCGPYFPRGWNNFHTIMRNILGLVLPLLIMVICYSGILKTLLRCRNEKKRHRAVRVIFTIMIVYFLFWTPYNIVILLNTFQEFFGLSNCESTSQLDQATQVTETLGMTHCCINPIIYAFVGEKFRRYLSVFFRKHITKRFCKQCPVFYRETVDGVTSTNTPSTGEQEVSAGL

The assay addresses human chemokine receptor 2 isoform B (Homo sapiens, UniProt P41597). The assay can be described thus: Calcium mobilization assay (FLIPR, CHOK1-CCR2B-A5 cells, 20 nM MCP-1). The note with it: Ca mobilisation assay, CCR2, antagonist activity vs 20 nM MCP-1. The procedure:
CHOK1-CCR2B-A5 cells (from Euroscreen) stably overexpressing the human chemokine receptor 2 isoform B were cultured in Nutrient Hams F12 medium supplemented with 5% FBS, 100 U/ml penicillin, 100 μg/ml streptomycin, 400 μg/ml G418 and 5 μg/ml puromycin.
For the assay cells were grown overnight in 384-well black clear flat bottom polystyrene plates (Costar) at 37° C. at 5% CO2. After washing with DMEM, 20 mM Hepes, 2.5 mM probenecid, 0.1% BSA (DMEM assay buffer) cells were loaded with 4 μM Fluo-4 in the same DMEM assay buffer for 2 hours at 30° C. Excess dye was removed and cells were washed with DMEM assay buffer. 384-well compound plates were prepared with DMEM assay buffer/0.5% DMSO with or without various concentrations of test compounds. Usually compounds were tested for agonist and antagonist activity.
Test compounds were added to the assay plate and agonist activity was monitored as fluorescence for 80 seconds with a FLIPR (488 nm excitation; 510-570 nm emission; Molecular Devices). After 20-30 min. of incubation at 30° C., 20 nM MCP-1 (R&D; Roche) was added and fluorescence was monitored again for 80 seconds. Increases in intracellular calcium are reported as maximum fluorescence after agonist exposure minus basal fluorescence before exposure. Antagonist activity is indicated as inhibitor concentration required for 50% inhibition of specific calcium increases.
(A change in cytosolic calcium serves as a functional read-out for many receptors and channels.)

For orientation: IC50 means the midpoint of a concentration-inhibition curve. With `CC1CCN(CCCCN2CCN(C(=O)/C=C/c3ccc(F)c(Cl)c3)CCC2=O)CC1O` (stereo not shown), the IC50 was determined as 382 nM.
